# Paper PMC6152004 (Molecules : A Journal of Synthetic Chemistry and Natural …, 2017)
# The chains behind the UniProt entries cited, without tags or fusion partners. Residues count along the entry.
# UniProt P06276, 29-602: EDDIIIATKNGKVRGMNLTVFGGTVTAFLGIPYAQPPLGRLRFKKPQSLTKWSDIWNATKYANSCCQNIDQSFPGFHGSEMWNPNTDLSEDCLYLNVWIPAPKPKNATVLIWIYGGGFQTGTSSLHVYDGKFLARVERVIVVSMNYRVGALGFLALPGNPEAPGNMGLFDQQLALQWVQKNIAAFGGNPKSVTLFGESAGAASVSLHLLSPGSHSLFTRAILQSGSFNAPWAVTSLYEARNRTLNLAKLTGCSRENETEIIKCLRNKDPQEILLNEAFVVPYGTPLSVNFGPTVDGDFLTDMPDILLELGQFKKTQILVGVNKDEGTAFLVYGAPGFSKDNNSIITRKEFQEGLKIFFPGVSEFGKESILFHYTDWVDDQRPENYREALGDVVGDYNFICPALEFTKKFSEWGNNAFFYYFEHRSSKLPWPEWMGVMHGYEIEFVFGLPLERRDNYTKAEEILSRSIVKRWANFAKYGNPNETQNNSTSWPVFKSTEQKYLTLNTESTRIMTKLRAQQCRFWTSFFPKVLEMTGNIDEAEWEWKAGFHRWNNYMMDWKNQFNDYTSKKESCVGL
# UniProt P22303, 32-617 isoform P22303-2 limits assumed: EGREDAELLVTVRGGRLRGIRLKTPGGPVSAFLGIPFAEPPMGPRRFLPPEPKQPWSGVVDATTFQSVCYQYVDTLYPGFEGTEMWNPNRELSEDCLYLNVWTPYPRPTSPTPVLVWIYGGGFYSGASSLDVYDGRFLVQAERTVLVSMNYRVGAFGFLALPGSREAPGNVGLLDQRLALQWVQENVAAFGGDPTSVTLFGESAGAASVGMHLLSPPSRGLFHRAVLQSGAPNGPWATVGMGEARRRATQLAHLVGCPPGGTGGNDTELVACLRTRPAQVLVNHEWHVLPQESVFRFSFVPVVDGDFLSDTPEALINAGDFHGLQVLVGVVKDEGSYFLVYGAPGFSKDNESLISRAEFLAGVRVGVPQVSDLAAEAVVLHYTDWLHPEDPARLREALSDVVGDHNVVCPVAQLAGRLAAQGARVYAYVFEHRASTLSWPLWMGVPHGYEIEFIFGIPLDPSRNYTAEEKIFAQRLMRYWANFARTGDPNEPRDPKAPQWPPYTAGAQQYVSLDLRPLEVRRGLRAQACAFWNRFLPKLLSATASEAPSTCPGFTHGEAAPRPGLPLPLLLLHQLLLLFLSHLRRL
# What was measured:
# Assay type in all cases: biochemical
# [1] = target: human plasma butyrylcholinesterase (BChE) (Homo sapiens, UniProt P06276); settings: read-out: BChE (IC50)
# [2] = target: T1, recombinant prolyl oligopeptidase (POP) (Homo sapiens, UniProt P48147); test: Prolyl oligopeptidase assay, substrate Z-Gly-Pro-p-nitroanilide; settings: read-out: POP (IC50), mean ± S.E.M. of three replications
# T1 construct: purchased Sigma-Aldrich (Prague, Czech Republic)
# T1 sequence (P48147 1-710): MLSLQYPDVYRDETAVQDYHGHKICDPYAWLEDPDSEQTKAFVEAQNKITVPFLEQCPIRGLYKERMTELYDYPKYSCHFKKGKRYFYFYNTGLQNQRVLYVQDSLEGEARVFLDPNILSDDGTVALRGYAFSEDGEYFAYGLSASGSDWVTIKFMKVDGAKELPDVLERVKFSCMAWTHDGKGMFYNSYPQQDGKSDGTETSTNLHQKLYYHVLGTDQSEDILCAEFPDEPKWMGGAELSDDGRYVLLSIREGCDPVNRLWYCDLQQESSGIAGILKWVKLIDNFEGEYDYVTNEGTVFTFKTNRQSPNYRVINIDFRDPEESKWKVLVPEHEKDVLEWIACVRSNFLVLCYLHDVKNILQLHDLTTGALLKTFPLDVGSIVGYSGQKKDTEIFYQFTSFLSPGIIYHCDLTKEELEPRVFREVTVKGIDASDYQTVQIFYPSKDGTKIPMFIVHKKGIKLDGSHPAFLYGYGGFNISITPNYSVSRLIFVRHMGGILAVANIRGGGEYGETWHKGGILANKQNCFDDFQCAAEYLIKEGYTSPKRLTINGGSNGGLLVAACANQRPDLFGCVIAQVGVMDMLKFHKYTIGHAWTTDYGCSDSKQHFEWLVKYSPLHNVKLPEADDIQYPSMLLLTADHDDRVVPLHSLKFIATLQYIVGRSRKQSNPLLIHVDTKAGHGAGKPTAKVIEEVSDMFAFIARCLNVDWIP
# [3] = target: T2, human blood acetylcholinesterase (AChE) (Homo sapiens, UniProt P22303); test: AChE inhibition, modified Ellman's method, red blood cell lysate; settings: read-out: AChE (IC50); erythrocyte lysate AChE; mean ± S.E.M. of three replications
# T2 construct: Red blood cell lysate was used as a source of AChE and human plasma as a source of BChE; from tissue; host or cells: human erythrocytes (lysate) from freshly drawn blood of healthy volunteers
Substance,IC50 [1] [µM],IC50 [2] [µM],IC50 [3] [µM]
protopine [Compound 2],209 ± 17.7,> 1000,230 ± 21
(+)-laudanosine [Compound 1],> 1000,341 ± 37.5,
